In patent US20080214451A1:

Biological target: PAR4 (protease-activated receptor 4) (human) (UniProt Q96RI0)
Test: cell-based or functional assay

thrombin (from UniProt P00734 328-622) (enzyme)
EC50 of thrombin activation of PAR4-dependent aggregation of human platelets, with bivalirudin alone or bivalirudin plus RWJ-56110; similar with PAR1-Ab: 10 to 11 nM
